From US5032599A, “N-(pyrrol-l-yl)pyridinamines” (Hoechst-Roussel Pharmaceuticals Inc., priority 1988, dated 1991)
Structures can show the parent of a compound that is named as a salt. Where two headings read alike, the source gives them in different places.

Tested on: [^3 H]-QNB (quinuclidinyl benzilate) binding sites
Assay: [^3H]-QNB displacement assay
Settings: for IC50: [3H]-QNB displacement; for Ratio W/O Zinc/With Zinc: ratio of IC50 without zinc to IC50 with zinc
[1] = read-out: IC50 W/O Zinc, without zinc
[2] = read-out: IC50 With Zinc, with zinc

Row | SMILES | IC50 [1] | IC50 [2] | Ratio W/O Zinc/With Zinc
1 | CN(c1ccncc1)n1cccc1 | 142 µM | 13.2 µM | 
2 | CCN(c1ccncc1)n1cccc1Cl.Cl |  |  | 6.2
3 | CN(c1ccncc1)n1ccc(C=O)c1 |  | 32.9 µM | 5.6
4 | c1ccn(Nc2ccncc2)c1 [N-(1H-Pyrrol-1-yl)-4-pyridinamine] | 367 µM | 30.4 µM | 12.2
5 | CCN(c1ccncc1)n1cccc1Cl | 33.4 µM | 5.4 µM | 
6 | CN(c1ccncc1)n1cccc1.Cl |  |  | 10.7
7 | CC(O)c1cccn1N(C)c1ccncc1 (stereo not drawn) [α-methyl-1-[[N-(4-pyridinyl)-N-methyl]amino]-1H-pyrrole-2-methanol maleate] |  | 22 µM | 7.8
8 | CC[C@@H]1C(=O)OC[C@@H]1Cc1cncn1C [Pilocarpine, reference compound] | 5.8 µM | 1.72 µM | 3.4
